Values quoted from earlier work in US20060201053A1, “Barrier preventing wood pest access to wooden structures” (priority 2000, published 2006).

Test system: Reticulitermes flavipes
Settings: cited from earlier work

CC1(C)[C@H](C(=O)O[C@H](C#N)c2cccc(Oc3ccccc3)c2)[C@@H]1/C=C(\Cl)C(F)(F)F (racemic) [Lambda cyhalothrin]
lethal concentration that kills 99 percent of test termites (LC99): 0.0001 μg/termite
